Consider 23 compounds from US7507717B2 (Xenome Ltd., priority 2002, dated 2009).

Protein sequences, listed by entry. Tags and fused reporters are not part of them.
UniProt P23975, whole entry: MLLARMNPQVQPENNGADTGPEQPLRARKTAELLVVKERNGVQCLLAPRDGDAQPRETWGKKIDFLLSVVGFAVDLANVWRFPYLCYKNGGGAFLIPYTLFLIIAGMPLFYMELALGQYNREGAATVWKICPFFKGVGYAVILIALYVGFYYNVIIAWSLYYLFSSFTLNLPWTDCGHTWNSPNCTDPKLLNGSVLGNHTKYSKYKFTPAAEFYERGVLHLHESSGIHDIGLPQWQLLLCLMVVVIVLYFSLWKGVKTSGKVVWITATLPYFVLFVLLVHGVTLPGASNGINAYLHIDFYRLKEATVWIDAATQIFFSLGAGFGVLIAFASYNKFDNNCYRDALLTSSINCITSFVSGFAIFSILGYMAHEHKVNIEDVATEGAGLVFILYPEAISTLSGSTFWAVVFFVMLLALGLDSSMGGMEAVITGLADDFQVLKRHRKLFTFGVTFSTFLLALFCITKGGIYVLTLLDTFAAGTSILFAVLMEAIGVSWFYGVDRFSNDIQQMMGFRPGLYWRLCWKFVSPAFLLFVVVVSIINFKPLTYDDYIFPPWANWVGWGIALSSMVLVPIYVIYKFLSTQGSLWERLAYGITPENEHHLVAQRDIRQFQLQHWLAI

Assay [1] has as its target T1, human noradrenaline transporter (hNET) (Homo sapiens, UniProt P23975).
T1 construct: expressed in transfected cells; host or cells: COS-7 cells (ATCC), transient transfection with metafectene
The experiment in a line: biochemical. Format: binding. Particulars: Av IC50 Displacement of 3H-nisoxetine from hNET.

For assay [2], the target named is T1, human noradrenaline transporter (hNET). The experiment in a line: cell-based.

`CCCC[C@H](NC(=O)CNC(=O)[C@H](CCCNC(=N)N)NC(=O)[C@H](Cc1ccc(O)cc1)NC(=O)[C@@H](N)CC(=O)O)C(=O)N[C@H]1CSSC[C@@H](C(N)=O)NC(=O)[C@@H]2C[C@@H](O)CN2C(=O)[C@H](CCCNC(=N)N)NC(=O)[C@@H]2CSSC[C@H](NC1=O)C(=O)NCC(=O)N[C@@H](Cc1ccc(OC)cc1)C(=O)N[C@@H](CCCCN)C(=O)N[C@@H](CC(C)C)C(=O)N2` [compound 55]: the IC50 was 166 nM in assay [1] and 170 nM in assay [2].
The matching figures for `COc1ccc(C[C@@H]2NC(=O)CNC(=O)[C@@H]3CSSC[C@H](NC(=O)[C@H](CC(C)C)NC(=O)[C@H](CCCCN)NC2=O)C(=O)N[C@@H](Cc2c[nH]cn2)C(=O)N2C[C@H](O)C[C@H]2C(=O)N[C@H](C(N)=O)CSSC[C@H](NC(=O)[C@@H](NC(=O)CNC(=O)C[C@@H](N)CCCCN)C(C)C)C(=O)N3)cc1` [compound 79]: 275 nM and 77.6 nM.
For the compound `CCCC[C@H](NC(=O)CNC(=O)[C@H](CCCNC(=N)N)NC(=O)[C@H](Cc1ccc(O)cc1)NC(=O)[C@@H](N)CCCCN)C(=O)N[C@H]1CSSC[C@@H](C(N)=O)NC(=O)[C@@H]2C[C@@H](O)CN2C(=O)[C@H](CCCNC(=N)N)NC(=O)[C@@H]2CSSC[C@H](NC1=O)C(=O)NCC(=O)N[C@@H](Cc1ccc(OC)cc1)C(=O)N[C@@H](CCCCN)C(=O)N[C@@H](CC(C)C)C(=O)N2` [compound 18], the values for the IC50 in assay [1] and in assay [2] were 34.7 nM and 51.3 nM, respectively.
In the case of `COc1ccc(C[C@@H]2NC(=O)CNC(=O)[C@@H]3CSSC[C@H](NC(=O)[C@H](CC(C)C)NC(=O)[C@H](CCCCN)NC2=O)C(=O)N[C@@H](Cc2c[nH]cn2)C(=O)N2CCC[C@H]2C(=O)N[C@H](C(N)=O)CSSC[C@H](NC(=O)[C@@H](NC(=O)CNC(=O)[C@H](CC(N)=O)NC(=O)[C@@H](N)Cc2c[nH]c4ccccc24)C(C)C)C(=O)N3)cc1` [compound 53], the IC50 in assay [1] was 155 nM; in assay [2], 145 nM.
On the same counts, the results for `CCCC[C@H](NC(=O)CNC(=O)[C@@H](N)CCCN)C(=O)N[C@H]1CSSC[C@@H](C(N)=O)NC(=O)[C@@H]2C[C@@H](O)CN2C(=O)[C@H](Cc2c[nH]cn2)NC(=O)[C@@H]2CSSC[C@H](NC1=O)C(=O)NCC(=O)N[C@@H](Cc1ccc(OC)cc1)C(=O)N[C@@H](CCCCN)C(=O)N[C@@H](CC(C)C)C(=O)N2` [compound 45] are 132 nM and 117 nM.
On the same counts, the results for `CC(C)C[C@@H]1NC(=O)[C@H](CCCCN)NC(=O)[C@H](Cc2ccc(O)cc2)NC(=O)CNC(=O)[C@@H]2CSSC[C@H](NC1=O)C(=O)N[C@@H](Cc1c[nH]cn1)C(=O)N1C[C@H](O)C[C@H]1C(=O)N[C@H](C(N)=O)CSSC[C@H](NC(=O)[C@@H](NC(=O)CNC(=O)[C@@H](N)Cc1ccccc1)C(C)C)C(=O)N2` [compound 133] are 1820 nM and 501 nM.
On the same counts, the results for `COc1ccc(C[C@@H]2NC(=O)CNC(=O)[C@@H]3CSSC[C@H](NC(=O)[C@H](CC(C)C)NC(=O)[C@H](CCCCN)NC2=O)C(=O)N[C@@H](Cc2c[nH]cn2)C(=O)N2C[C@H](O)C[C@H]2C(=O)N[C@H](C(N)=O)CSSC[C@H](NC(=O)[C@H](CC(C)C)NC(=O)CNC(=O)[C@H](CCCNC(=N)N)NC(=O)[C@@H](N)Cc2c[nH]c4ccccc24)C(=O)N3)cc1` [compound 16] are 28.8 nM and 36.3 nM.
With `CC(C)C[C@@H]1NC(=O)[C@H](CCCCN)NC(=O)[C@H](Cc2ccc(O)cc2)NC(=O)CNC(=O)[C@@H]2CSSC[C@H](NC1=O)C(=O)N[C@@H](Cc1c[nH]cn1)C(=O)N1C[C@H](O)C[C@H]1C(=O)N[C@H](C(N)=O)CSSC[C@H](NC(=O)[C@@H](NC(=O)CNC(=O)[C@H](N)CCCNC(=N)N)C(C)C)C(=O)N2` [compound 103], the figures for the IC50 in assay [1] and in assay [2] were 708 nM and 316 nM, respectively.
The matching figures for `CC(C)C[C@@H]1NC(=O)[C@H](CCCCN)NC(=O)[C@H](Cc2ccc(O)cc2)NC(=O)CNC(=O)[C@@H]2CSSC[C@H](NC1=O)C(=O)N[C@@H](Cc1c[nH]cn1)C(=O)N1C[C@H](O)C[C@H]1C(=O)N[C@H](C(N)=O)CSSC[C@H](NC(=O)[C@@H](NC(=O)CNC(=O)[C@H](N)CCCCN)C(C)C)C(=O)N2` [compound 121]: 1320 nM and 457 nM.
On the same counts, the results for `CC(C)C[C@@H]1NC(=O)[C@H](CCCCN)NC(=O)[C@H](CCc2ccc(O)cc2)NC(=O)CNC(=O)[C@@H]2CSSC[C@H](NC1=O)C(=O)N[C@@H](Cc1c[nH]cn1)C(=O)N1C[C@H](O)C[C@H]1C(=O)N[C@H](C(N)=O)CSSC[C@H](NC(=O)[C@@H](NC(=O)CNC(=O)[C@@H](N)CC(N)=O)C(C)C)C(=O)N2` [compound 168] are 9120 nM and 2630 nM.
The matching figures for `CCCC[C@H](NC(=O)CNC(=O)[C@@H](N)CCCN)C(=O)N[C@H]1CSSC[C@@H](C(N)=O)NC(=O)[C@@H]2C[C@@H](O)CN2C(=O)[C@H](Cc2c[nH]cn2)NC(=O)[C@@H]2CSSC[C@H](NC1=O)C(=O)NCC(=O)N[C@@H](Cc1ccc(O)cc1)C(=O)N[C@@H](CCCCN)C(=O)N[C@@H](CCC(C)C)C(=O)N2` [compound 52]: 148 nM and 81.3 nM.
With `COc1ccc(C[C@@H]2NC(=O)CNC(=O)[C@@H]3CSSC[C@H](NC(=O)[C@H](CC(C)C)NC(=O)[C@H](CCCCN)NC2=O)C(=O)N[C@@H](Cc2c[nH]cn2)C(=O)N2C[C@H](O)C[C@H]2C(=O)N[C@H](C(N)=O)CSSC[C@H](NC(=O)[C@@H](NC(=O)CNC(=O)[C@@H](N)CC(N)=O)C(C)C)C(=O)N3)cc1` [compound 123], the IC50 is 1350 nM in assay [1] and 355 nM in assay [2].
The matching figures for `CCCC[C@H](NC(=O)CNC(=O)[C@H](CCCNC(=N)N)NC(=O)[C@@H](N)Cc1ccc(O)cc1)C(=O)N[C@H]1CSSC[C@@H](C(N)=O)NC(=O)[C@@H]2C[C@@H](O)CN2C(=O)[C@H](CCCNC(=N)N)NC(=O)[C@@H]2CSSC[C@H](NC1=O)C(=O)NCC(=O)N[C@@H](Cc1ccc(OC)cc1)C(=O)N[C@@H](CCCCN)C(=O)N[C@@H](CC(C)C)C(=O)N2` [compound 14]: 15.8 nM and 33.1 nM.
Take `COc1ccc(C[C@@H]2NC(=O)CNC(=O)[C@@H]3CSSC[C@H](NC(=O)[C@H](CC(C)C)NC(=O)[C@H](CCCCN)NC2=O)C(=O)N[C@@H](Cc2c[nH]cn2)C(=O)N2CCC[C@H]2C(=O)N[C@H](C(N)=O)CSSC[C@H](NC(=O)[C@@H](NC(=O)CNC(=O)C[C@@H](N)CCCCN)C(C)C)C(=O)N3)cc1` [compound 75]: the IC50 in assay [1] is 251 nM.
On the same count and under the same terms, with `COc1ccc(C[C@@H]2NC(=O)CNC(=O)[C@@H]3CSSC[C@H](NC(=O)[C@H](CC(C)C)NC(=O)[C@H](CCCCN)NC2=O)C(=O)N[C@@H](Cc2c[nH]cn2)C(=O)N2C[C@H](O)C[C@H]2C(=O)N[C@H](C(N)=O)CSSC[C@H](NC(=O)[C@@H](NC(=O)CNC(=O)[C@H](CCCCN)NC(=O)[C@@H](N)Cc2c[nH]c4ccccc24)C(C)C)C(=O)N3)cc1` [compound 21] the figure was 39.8 nM; with `CC(C)C[C@@H]1NC(=O)[C@H](CCCCN)NC(=O)[C@H](Cc2ccc(O)cc2)NC(=O)CNC(=O)[C@@H]2CSSC[C@H](NC1=O)C(=O)N[C@@H](Cc1c[nH]cn1)C(=O)N1C[C@H](O)C[C@H]1C(=O)N[C@H](C(N)=O)CSSC[C@H](NC(=O)[C@@H](NC(=O)CNC(=O)C[C@@H](N)CCCCN)C(C)C)C(=O)N2` [compound 101], 692 nM.
The same measure, in the same setting: with `CC(C)C[C@@H]1NC(=O)[C@H](CCCCN)NC(=O)[C@H](Cc2ccc(O)cc2)NC(=O)CNC(=O)[C@@H]2CSSC[C@H](NC1=O)C(=O)N[C@@H](Cc1c[nH]cn1)C(=O)N1C[C@H](O)C[C@H]1C(=O)N[C@H](C(=O)N[C@@H](Cc1ccc(O)cc1)C(N)=O)CSSC[C@H](NC(=O)[C@@H](NC(=O)CNC(=O)[C@H](CCCNC(=N)N)NC(=O)[C@@H](N)Cc1c[nH]c3ccccc13)C(C)C)C(=O)N2` [compound 43] the figure was 123 nM.
The same measure, in the same setting: with `CC(C)C[C@@H]1NC(=O)[C@H](CCCCN)NC(=O)[C@H](Cc2ccc(O)cc2)NC(=O)CNC(=O)[C@@H]2CSSC[C@H](NC1=O)C(=O)N[C@@H](Cc1c[nH]cn1)C(=O)N1CSC[C@H]1C(=O)N[C@H](C(N)=O)CSSC[C@H](NC(=O)[C@@H](NC(=O)CNC(=O)[C@@H](N)CC(N)=O)C(C)C)C(=O)N2` [compound 158] the figure was 4680 nM; with `CC(C)C[C@@H]1NC(=O)[C@H](CCCCN)NC(=O)[C@H](Cc2ccc(O)cc2)NC(=O)CNC(=O)[C@@H]2CSSC[C@H](NC1=O)C(=O)N[C@@H](CCCNC(=N)N)C(=O)N1C[C@H](O)C[C@H]1C(=O)N[C@H](C(N)=O)CSSC[C@H](NC(=O)[C@@H](NC(=O)CNC(=O)C[C@@H](N)CCCCN)C(C)C)C(=O)N2` [compound 87], 331 nM.
As for `CC(C)C[C@@H]1NC(=O)[C@H](CCCCN)NC(=O)[C@H](Cc2ccc(O)cc2)NC(=O)CNC(=O)[C@@H]2CSSC[C@H](NC1=O)C(=O)N[C@@H](Cc1c[nH]cn1)C(=O)N1C[C@H](O)C[C@H]1C(=O)N[C@H](C(N)=O)CSSC[C@H](NC(=O)[C@@H](NC(=O)CNC(=O)[C@H](C)N)C(C)C)C(=O)N2` [compound 130], the IC50 in assay [1] was 1660 nM.
The same measure, in the same setting: with `CC(C)CC[C@@H]1NC(=O)[C@H](CCCCN)NC(=O)[C@H](Cc2ccc(O)cc2)NC(=O)CNC(=O)[C@@H]2CSSC[C@H](NC1=O)C(=O)N[C@@H](Cc1c[nH]cn1)C(=O)N1CCC[C@H]1C(=O)N[C@H](C(N)=O)CSSC[C@H](NC(=O)[C@@H](NC(=O)CNC(=O)C[C@@H](N)CCCCN)C(C)C)C(=O)N2` [compound 76] the figure was 263 nM; with `CC(C)C[C@@H]1NC(=O)[C@H](CCCCN)NC(=O)[C@H](Cc2ccc(O)cc2)NC(=O)CNC(=O)[C@@H]2CSSC[C@H](NC1=O)C(=O)N[C@@H](Cc1c[nH]cn1)C(=O)N1CCCC[C@H]1C(=O)N[C@H](C(N)=O)CSSC[C@H](NC(=O)[C@@H](NC(=O)CNC(=O)[C@@H](N)CC(N)=O)C(C)C)C(=O)N2` [compound 129], 1620 nM.
The same measure, in the same setting: with `COc1ccc(C[C@@H]2NC(=O)CNC(=O)[C@@H]3CSSC[C@H](NC(=O)[C@H](CC(C)C)NC(=O)[C@H](CCCCN)NC2=O)C(=O)N[C@@H](Cc2c[nH]cn2)C(=O)N2CCC[C@H]2C(=O)N[C@H](C(N)=O)CSSC[C@H](NC(=O)[C@@H](NC(=O)CNC(=O)[C@@H](N)CC(N)=O)C(C)C)C(=O)N3)cc1` [compound 113] the figure was 1100 nM.
